From patent US20210228549A1 (Biohaven Therapeutics Ltd., priority 2015, published 2021)

Tested on: Melanoma C8161 cells
Assay: Inhibition of human melanoma cell xenograft growth
Assay type: in vivo
Settings: C8161 xenograft in nude mice; 7.5 mg/kg p.o. gavage every day for 21 days; P<0.01
Description: Mice were treated every day for 21 days, and tumor sizes were measured twice weekly with a Vernier caliper.

Nc1nc2ccc(OC(F)(F)F)cc2s1 [riluzole]
Tumor volume vs untreated or vehicle-treated controls: significant reduction in tumor volume
